Experimental data published in ChEMBL document CHEMBL5614391, “GPX4 allosteric activators inhibit ferroptosis and exert myocardial protection in doxorubicin-induced myocardial injury mouse model” (Eur J Med Chem, 2024).
Calls of active or inactive are those of the source. No cut-off for these calls is given here.

Experiments:
HT-1080 [1] = test: Protection against erastin-induced ferroptosis in human HT-1080 cells assessed as reduction in lipid peroxides accumulation incubated for 2 hrs by C11-BODIPSY (581/591) probe based flow cytometry analysis; assay type: functional, cell-based
Mus musculus [2] = test: Protection against doxorubicin induced myocardial injury in mouse assessed as appearance of evenly arranged cells at 10 to 25 mg/kg, ip administered for 24 hrs followed by doxorubicin addition and measured after 96 hrs by H and E staining based assay; assay type: functional, organism-based; settings: dose 10-25 mg/kg, time 120.0 hrs
Mus musculus [3] = test: Protection against doxorubicin induced myocardial injury in mouse assessed as reduction in nuclear pyknosis at 10 to 25 mg/kg, ip administered for 24 hrs followed by doxorubicin addition and measured after 96 hrs by H and E staining based assay; assay type: functional, organism-based; settings: dose 10-25 mg/kg, time 120.0 hrs
Mus musculus [4] = test: Protection against doxorubicin induced myocardial injury in mouse assessed as reduction in vacuolar degeneration at 10 to 25 mg/kg, ip administered for 24 hrs followed by doxorubicin addition and measured after 96 hrs by H and E staining based assay; assay type: functional, organism-based; settings: dose 10-25 mg/kg, time 120.0 hrs
Mus musculus [5] = test: Protection against doxorubicin induced myocardial injury in mouse assessed as appearance of uniformly arranged myocardial cells at 10 to 25 mg/kg, ip administered for 24 hrs followed by doxorubicin addition and measured after 96 hrs by H and E staining based assay; assay type: functional, organism-based; settings: dose 10-25 mg/kg, time 120.0 hrs
Mus musculus [6] = test: Protection against doxorubicin induced myocardial injury in mouse assessed as appearance of uniform myocardial cell size at 10 to 25 mg/kg, ip administered for 24 hrs followed by doxorubicin addition and measured after 96 hrs by H and E staining based assay; assay type: functional, organism-based; settings: dose 10-25 mg/kg, time 120.0 hrs
Mus musculus [7] = test: Protection against doxorubicin induced myocardial injury in mouse assessed as appearance of neatly arranged myocardial cells at 10 to 25 mg/kg, ip administered for 24 hrs followed by doxorubicin addition and measured after 96 hrs by H and E staining based assay; assay type: functional, organism-based; settings: dose 10-25 mg/kg, time 120.0 hrs
Mus musculus [8] = test: Protection against doxorubicin induced myocardial injury in mouse assessed as appearance of tightly arranged myocardial cells at 10 to 25 mg/kg, ip administered for 24 hrs followed by doxorubicin addition and measured after 96 hrs by H and E staining based assay; assay type: functional, organism-based; settings: dose 10-25 mg/kg, time 120.0 hrs
Mus musculus [9] = test: Protection against doxorubicin induced myocardial injury in mouse assessed as appearance of myocardial cells with clear horizontal lines at 10 to 25 mg/kg, ip administered for 24 hrs followed by doxorubicin addition and measured after 96 hrs by H and E staining based assay; assay type: functional, organism-based; settings: dose 10-25 mg/kg, time 120.0 hrs
Mus musculus [10] = test: Protection against doxorubicin induced myocardial injury in mouse assessed as reduction in loss of myocardial cells at 10 to 25 mg/kg, ip administered for 24 hrs followed by doxorubicin addition and measured after 96 hrs by H and E staining based assay; assay type: functional, organism-based; settings: dose 10-25 mg/kg, time 120.0 hrs
Mus musculus [11] = test: Protection against doxorubicin induced myocardial injury in mouse assessed as appearance of rich and uniform cytoplasm at 10 to 25 mg/kg, ip administered for 24 hrs followed by doxorubicin addition and measured after 96 hrs by H and E staining based assay; assay type: functional, organism-based; settings: dose 10-25 mg/kg, time 120.0 hrs
Mus musculus [12] = test: Protection against doxorubicin induced myocardial injury in mouse assessed as appearance of normal interstitium at 10 to 25 mg/kg, ip administered for 24 hrs followed by doxorubicin addition and measured after 96 hrs by H and E staining based assay; assay type: functional, organism-based; settings: dose 10-25 mg/kg, time 120.0 hrs
Mus musculus [13] = test: Protection against doxorubicin induced myocardial injury in mouse assessed as appearance of neatly arranged myocardial fibers at 10 to 25 mg/kg, ip administered for 24 hrs followed by doxorubicin addition and measured after 96 hrs by H and E staining based assay; assay type: functional, organism-based; settings: dose 10-25 mg/kg, time 120.0 hrs
Mus musculus [14] = test: Protection against doxorubicin induced myocardial injury in mouse assessed as absence of myocardial fibrosis at 10 to 25 mg/kg, ip administered for 24 hrs followed by doxorubicin addition and measured after 96 hrs by H and E staining based assay; assay type: functional, organism-based; settings: dose 10-25 mg/kg, time 120.0 hrs
Mus musculus [15] = test: Protection against doxorubicin induced myocardial injury in mouse assessed as reduction in inflammatory cell infiltration at 10 to 25 mg/kg, ip administered for 24 hrs followed by doxorubicin addition and measured after 96 hrs by H and E staining based assay; assay type: functional, organism-based; settings: dose 10-25 mg/kg, time 120.0 hrs
Mus musculus [16] = test: Protection against doxorubicin induced myocardial injury in mouse assessed as reduction in nuclear lysis at 10 to 25 mg/kg, ip administered for 24 hrs followed by doxorubicin addition and measured after 96 hrs; assay type: functional, organism-based; settings: dose 10-25 mg/kg, time 120.0 hrs
Mus musculus [17] = test: Protection against doxorubicin induced myocardial injury in mouse assessed as reduction in serum MDA level at 10 to 25 mg/kg, ip administered for 24 hrs followed by doxorubicin addition and measured after 96 hrs; assay type: functional, organism-based; settings: dose 10-25 mg/kg, time 120.0 hrs
Mus musculus [18] = test: Protection against doxorubicin induced myocardial injury in mouse assessed as reduction in myocardial MDA level at 10 to 25 mg/kg, ip administered for 24 hrs followed by doxorubicin addition and measured after 96 hrs; assay type: functional, organism-based; settings: dose 10-25 mg/kg, time 120.0 hrs
Mus musculus [19] = test: Protection against doxorubicin induced myocardial injury in mouse assessed as reduction in myocardial AST level at 10 to 25 mg/kg, ip administered for 24 hrs followed by doxorubicin addition and measured after 96 hrs; assay type: functional, organism-based; settings: dose 10-25 mg/kg, time 120.0 hrs
HT-1080 [20] = test: Reversal of erastin induced cell death in human HT-1080 cells assessed as cell viability at 40 uM preincubated for 1 hr followed by erastin addition and measured after 24 hrs by CCK8 method; assay type: functional, cell-based; settings: time 25.0 hrs
HT-1080 [21] = test: Reversal of staurosporine induced cell death in human HT-1080 cells assessed as cell viability at 40 uM preincubated for 1 hr followed by staurosporine addition and measured after 24 hrs by CCK8 method; assay type: functional, cell-based; settings: time 25.0 hrs
HT-1080 [22] = test: Reversal of H2O2 induced cell death in human HT-1080 cells assessed as cell viability at 40 uM preincubated for 1 hr followed by H2O2 addition and measured after 24 hrs by CCK8 method; assay type: functional, cell-based; settings: time 25.0 hrs
HT-1080 [23] = test: Reversal of rapamycin induced cell death in human HT-1080 cells assessed as cell viability at 40 uM preincubated for 1 hr followed by rapamycin addition and measured after 24 hrs by CCK8 method; assay type: functional, cell-based; settings: time 25.0 hrs

COc1ccc(NCc2cccn2-c2nnc(N3CCN(C)CC3)s2)c(OC)c1
Activity (HT-1080 [1]): Active | Activity (Mus musculus [2]): Active | Activity (Mus musculus [3]): Active | Activity (Mus musculus [4]): Active | Activity (Mus musculus [5]): Active | Activity (Mus musculus [6]): Active | Activity (Mus musculus [7]): Active | Activity (Mus musculus [8]): Active | Activity (Mus musculus [9]): Active | Activity (Mus musculus [10]): Active | Activity (Mus musculus [11]): Active | Activity (Mus musculus [12]): Active | Activity (Mus musculus [13]): Active | Activity (Mus musculus [14]): Active | Activity (Mus musculus [15]): Active | Activity (Mus musculus [16]): Active | Activity (Mus musculus [17]): Active | Activity (Mus musculus [18]): Active | Activity (Mus musculus [19]): Active

COc1ccc(NCc2cccn2-c2nnc(N3CCN(C)CC3)s2)cc1OC
Activity (HT-1080 [1]): Active | Activity (HT-1080 [20]): Active | Activity (HT-1080 [21]): inactive | Activity (HT-1080 [22]): inactive | Activity (HT-1080 [23]): inactive
